# Binding of CDR-mutated scFvs to a peptide of the spike HR2 region

Target: peptide PDVDLGDISGINAS, taken from heptad repeat 2 (HR2) of SARS-CoV-2 spike.

The variants keep the light chain, the linker and the frameworks of Ab-14 (scFv order VH, three GGGGS repeats, VL).
VH: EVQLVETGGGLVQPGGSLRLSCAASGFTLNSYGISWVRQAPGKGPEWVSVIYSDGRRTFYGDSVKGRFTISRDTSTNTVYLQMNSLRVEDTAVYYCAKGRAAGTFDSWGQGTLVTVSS
VL: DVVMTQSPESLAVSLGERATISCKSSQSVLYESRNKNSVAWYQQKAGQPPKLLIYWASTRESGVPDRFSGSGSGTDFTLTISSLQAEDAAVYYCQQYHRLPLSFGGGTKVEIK

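The variants were designed computationally from a first round of random CDR variants and then made and measured. Their group label is 14H_En_Gibbs (En: ensemble of fine-tuned language models; Gibbs: Gibbs sampling). AlphaSeq pools MATa yeast showing the antibodies with MATalpha yeast showing the peptide. Binding brings cells together so that they mate, and sequencing counts the barcode pairs among the diploids. Scores were corrected for input abundance and mapped to Kd with protein pairs of known affinity run in the same pool. The assay was run in six technical replicates.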

The parent's heavy chain CDRs are GFTLNSYGIS, VIYSDGRRTFYGDSVK, GRAAGTFDS; each variant's own CDRs replace them letter for letter. Values are log10 of the apparent Kd in nM; lower means stronger binding. A pair that was not seen in that replicate is written "ND"; this usually means weak binding, but a binder can also be missed.

CDR-H1 | CDR-H2 | CDR-H3 | log10 Kd, replicates | control signals
GKDIEEYGVS | VIYADGKRNAYANKVK | GDNAGSFVD | ND ND ND ND ND ND | 0 of 18
GDGLEEYGIS | VIYADGMRESYVNDVK | GQKGGIFNL | ND ND ND ND ND ND | 0 of 18
GFDLDEYGIS | VIYADGKRMAYQADVK | GVQGGNALV | ND ND ND ND ND ND | 0 of 18
GFQIDEYGIS | VIYADGMRSFYKNSVK | NGMNVSGIV | ND ND ND ND ND ND | 1 of 18 (0.90)
GFALNEYGIS | VIYADGFRRAYQDKVK | GVNVGEFSV | ND ND ND ND ND ND | 0 of 18
GFNINEYGIS | VIYADGQRLSYDDKVK | GDITGTFND | ND ND ND ND ND ND | 0 of 18
GFSLDEYGIS | VIYADGRRTMYCDNFK | GELGCTFKM | ND ND ND ND ND ND | 0 of 18
GRDLDEYGIS | VIYADGVRQAYIDSVK | GNWSGTMMY | ND ND ND ND ND ND | 0 of 18
GFDIEEYGIS | VIYADGLRQAYKDNFK | GWNDGTIDV | ND ND ND ND ND 2.73 | 0 of 18
GYSLQDYGIS | VIYADGKRKSYAEDVK | GNTAGSFMD | ND ND ND ND ND ND | 0 of 18
GFSLNEYGIS | VIYADGQRTSYQQSVK | DVNDDINQV | ND ND ND ND ND ND | 0 of 18
GPSLDEFGIS | VIYADGMRTAYTDSVK | GLVAATFVD | ND ND ND ND ND ND | 1 of 18 (-1.25)
GFGLDEYGIS | VIFADGERKYYTDNVK | GHFGEDGVV | 2.08 ND ND ND ND ND | 0 of 18
GFDLENYGIS | VIYADGIRKVYDQSVK | GQMGTTFYV | ND ND ND ND ND ND | 0 of 18
GFSLDEYGIS | VIYADGRRTAYTQNVK | GLMQQGRTM | ND ND ND ND ND ND | 0 of 18
GFNLGEYGIS | VIYADGRRTFYINSVK | GEFIVMNSI | ND ND ND ND ND ND | 0 of 18
GFSLDEYGVS | VIYADGLRTQYTNDVK | GLYSFAFKM | ND ND ND ND ND ND | 0 of 18
GFDLTEYGIS | VIYADGRRTQYQDAVK | GLNGDMLVV | ND ND ND ND ND ND | 0 of 18
GNNLDEYGIS | VIYADGVRTAYAQRVK | GETGDNAMT | ND ND ND ND ND ND | 0 of 18
GFNISEYGIS | VIYADGMRSEYADNVK | GHKGNAFID | ND ND ND ND ND ND | 2 of 18 (1.42)
GFQIDEYGIS | VIYADGLRTVYDDAVK | GSDTGLFMI | 0.30 0.56 0.27 1.35 -0.49 0.04 | 0 of 18
GFQLDEYGIS | VIYADGLRQYYAQKVK | GYNSFDLND | ND ND ND ND ND ND | 0 of 18
GKDLDEYGIS | VIYADGARKAYQNQFK | GGQAGTFVN | 1.22 1.13 1.06 1.21 0.92 1.26 | 0 of 18
GFHLTEYGIS | VIYADGKRSVYTNDVK | GELGLGFVI | ND ND ND ND ND ND | 0 of 18
GFDIEEYGVS | VIYADGQRAFYTDSVK | GKGAGIALE | ND ND ND 3.67 ND ND | 0 of 18
GKGLDEYGVS | VIYADGKRHQYAGDVK | GGLAGQFDV | ND ND ND ND ND ND | 0 of 18
GMNIDEYGIS | VIYADGLRYHYANSVK | GEMAGFFMV | ND ND ND ND ND ND | 0 of 18
GFDLDEYGIS | VIYADGIRYHYKDSVK | GNVVGSVLY | ND ND ND ND ND ND | 0 of 18
GFDINEYGIS | VIFADGMRTAYLNSVK | GQMAGLFIM | ND ND ND ND ND ND | 0 of 18
GRNLDEYGIS | VIYADGQRTSYIDNVK | GGDSVHLDM | ND ND ND ND ND ND | 0 of 18
GFEIQEYGIS | VIYADGRRTAYAENVK | GTLGGTFLT | 0.84 0.64 ND 0.64 0.97 0.52 | 0 of 18
GFSIDEYGIS | VIYADGTRTFYTDNVK | GLIGMVCGL | ND ND ND ND ND ND | 0 of 18

The opening 2 entries, copied out:

CDR-H1	CDR-H2	CDR-H3	log10 Kd, replicates	control signals
GKDIEEYGVS	VIYADGKRNAYANKVK	GDNAGSFVD	ND ND ND ND ND ND	0 of 18
GDGLEEYGIS	VIYADGMRESYVNDVK	GQKGGIFNL	ND ND ND ND ND ND	0 of 18

The authors averaged sequences with at least three values out of six and counted those with two or fewer as poor binders. Of ten entries with the parent sequence, four were seen in most replicates (averages 0.34 to 2.37), three in one and three in none, so single entries are noisy. Background: pairings of all heavy chain designs with three empty control strains gave a value in 1% of cases (median 2.08, 5th percentile 0.84). Values in that range, when seen in few replicates, are hard to tell from nonspecific mating. Also given: how often the same scFv was detected with the empty control strains, with their mean in brackets. Values of this round are not directly comparable with the first-round values of the same sequences.

Source: Li et al. 2023 (doi:10.1038/s41467-023-39022-2), MIT Lincoln Laboratory and A-Alpha Bio; data file from the FLAb repository.